Test system: Ramos B cells
Assay: CDC, Ramos B cells with human serum, propidium iodide
Type: cell-based
Conditions: TRU-015 from CHO cells treated with 30 μg/ml castanospermine
Experimental: To determine the CDC activity of TRU-016 purified protein produced according to Example 2, Ramos B cells were suspended in Iscoves (Gibco/Invitrogen, Grand Island, N.Y.) at 5×10^5 cells/well in 75 μl. TRU-016 (75 μl) were added to the cells at twice the concentrations indicated. Binding reactions were allowed to proceed for 45 minutes prior to centrifugation and washing in serum-free Iscoves. Cells were resuspended in Iscoves with human serum (containing complement) at various concentrations. The cells were incubated 60 minutes at 37° C. Cells were washed by centrifugation and resuspended in staining media with 0.5 μg/ml propidium iodide. Samples were incubated 15 minutes at room temperature in the dark prior to analysis by flow cytometry using a FACsCalibur and CellQuest software (Becton Dickinson).

TRU-015: recombinant single chain protein (SMIP) that binds to the CD20 antigen; SEQ ID NO: 4
CDC versus protein produced by untreated CHO cells: similar

From patent US7846434B2, “Materials and methods for improved immunoglycoproteins” (Trubion Pharmaceuticals, Inc., priority 2006, dated 2010)
